# Experimental data as given in PubChem BioAssay AID651710 (Broad Institute, 2012).
# The chains behind the UniProt entries cited, without tags or fusion partners.
# UniProt P43351, whole entry: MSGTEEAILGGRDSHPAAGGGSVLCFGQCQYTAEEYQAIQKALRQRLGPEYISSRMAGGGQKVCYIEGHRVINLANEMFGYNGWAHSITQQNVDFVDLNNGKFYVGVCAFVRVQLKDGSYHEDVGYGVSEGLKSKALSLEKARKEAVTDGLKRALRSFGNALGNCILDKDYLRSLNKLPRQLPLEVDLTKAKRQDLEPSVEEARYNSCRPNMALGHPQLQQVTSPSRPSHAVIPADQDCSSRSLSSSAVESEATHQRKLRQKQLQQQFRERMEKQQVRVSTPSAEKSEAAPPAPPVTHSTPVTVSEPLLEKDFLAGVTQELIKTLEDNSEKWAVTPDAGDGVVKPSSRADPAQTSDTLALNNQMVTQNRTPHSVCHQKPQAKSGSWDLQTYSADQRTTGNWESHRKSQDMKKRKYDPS
# The entries are a selection whose mix differs from that of the whole data set. Active and inactive are the calls of the source.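 Rule for the calls: active = every replicate showing at least 50% inhibition; inconclusive = mean inhibition at least 50% but not in every replicate; inactive = the rest.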
# Target: DNA repair protein RAD52 homolog (Homo sapiens) (UniProt P43351)
# Assay: RAD52 DNA annealing inhibitors, primary screen, biochemical, FRET, single point, set 2 (AID 651710)
# Conditions: recombinant RAD52 DNA annealing, FRET fluorescence; at 18.7 µM; active compounds read high
row,Structure (SMILES),inhibition
1,CCN1CCC(Nc2ccc(Cl)cc2)CC1,inactive: -8.97%
2,O=C(NCC1(N2CCCCC2)CCCCC1)c1cccc(C(F)(F)F)c1,inactive: -6.16%
3,CC(C)c1ccc(C(=O)NCC2(N3CCOCC3)CCCCC2)cc1,inactive: -13.6%
4,COc1ccc(NC2CCN(C(=O)OC(C)(C)C)CC2)cc1,inactive: 5.57%
5,CN1CCN(CCOC(=O)C(O)(c2ccccc2)c2ccccc2)CC1,inactive: -26.6%
6,CCCCn1nnnc1C(c1cccc2ccccc12)N1CCC(n2c(=O)[nH]c3ccccc32)CC1 (centres undefined),inactive: -13.2%
7,COc1cc(C(=O)NCC2(N3CCCCC3)CCCCC2)ccc1OC(F)F,inactive: -26.2%
8,CCOc1ccc(C)cc1CN(CCCl)CCCl,inactive: 23.4%
9,O=C1CCN(Cc2ccccc2)CC1,inactive: -31%
10,CC(C)(C)n1nnnc1C(c1ccccc1)N1CCC(n2c(=O)[nH]c3ccccc32)CC1 (centres undefined),inactive: 4.64%
11,CCOC(=O)N1CCC(Nc2ccc(F)cc2)CC1,inactive: 3.1%
12,CCCCOc1ccc(C(=O)NCC2(N3CCOCC3)CCCCC2)cc1,inactive: -13.9%
13,CCCCn1nnnc1C(c1cc2ccccc2o1)N1CCC(n2c(=O)[nH]c3ccccc32)CC1 (centres undefined),inactive: -139%
14,O=P1(N(CCCl)CCCl)SCCCS1,inactive: -9.56%
15,O=C(NCC1(N2CCCCC2)CCCCC1)c1ccc(F)cc1,inactive: -7.34%
16,O=c1[nH]c2ccccc2n1C1CCN(C(c2ccccc2)c2nnnn2C2CCCCC2)CC1 (centres undefined),inactive: -5.87%
17,O=c1[nH]c2ccccc2n1C1CCN(C(c2cccc3ccccc23)c2nnnn2C2CCCC2)CC1 (centres undefined),inactive: -9.12%
18,CCOC(=O)N1CCC(Nc2cccc(C)c2)CC1,inactive: -20.1%
19,COc1cc(C(=O)NCC2(N(C)C)CCCCC2)ccc1OC(F)F,inactive: -0.993%
20,O=C(NCC1(N2CCCCC2)CCCCC1)c1cccs1,inactive: -2.9%

row,Structure (SMILES),inhibition
1,CCCCn1nnnc1C(CC)N1CCC(n2c(=O)[nH]c3ccccc32)CC1 (centres undefined),inactive: -3.23%
2,CCCCn1nnnc1C(c1cccs1)N1CCC(n2c(=O)[nH]c3ccccc32)CC1 (centres undefined),inactive: -1.54%
3,O=C(NCC1(N2CCCCC2)CCCCC1)c1ccc(=O)[nH]c1,inactive: -15.7%
4,CC(C)(C)OC(=O)N1CCC(N(C(=O)c2ccccc2)c2ccc(F)cc2)CC1,inactive: -4.74%
5,COc1ccc(C(=O)NCC2(N3CCCCC3)CCCCC2)c(OC)c1OC,inactive: -55.8%
6,CCC(c1nnnn1C1CCCC1)N1CCC(n2c(=O)[nH]c3ccccc32)CC1 (centres undefined),inactive: -25%
7,COc1ccc(C(=O)NCC2(N3CCCCC3)CCCCC2)cc1,inactive: -13.7%
8,Cc1cccc(NC2(C#N)CCN(Cc3ccccc3)CC2)c1,inactive: -11.9%
9,CSc1ccccc1C(=O)NCC1(N2CCCCC2)CCCCC1,inactive: -9.92%
10,Cc1cc(C)cc(N(C(=O)c2ccccc2)C2CCN(C(=O)OC(C)(C)C)CC2)c1,inactive: 7.28%
11,O=C(NCC1(N2CCCCC2)CCCCC1)c1ccc(Cl)nc1,inactive: -80.3%
12,O=c1[nH]c2ccccc2n1C1CCN(C(c2ccccc2OC(F)(F)F)c2nnnn2C2CCCCC2)CC1 (centres undefined),inactive: -12.7%
13,CCCCn1nnnc1C(c1ccc(OC)cc1)N1CCC(n2c(=O)[nH]c3ccccc32)CC1 (centres undefined),inactive: 6.33%
14,CCOC(=O)N1CCC(Nc2ccc(OC)cc2)CC1,inactive: -11.2%
15,COc1ccc(Cl)cc1C(=O)NCC1(N2CCOCC2)CCCCC1,inactive: 4.11%
16,O=C(NCC1(N2CCCCC2)CCCCC1)c1ccc(Cl)s1,inactive: -16.5%
17,N#CC1(Nc2ccccc2)CCN(Cc2ccccc2)CC1,inactive: -5.88%
18,O=c1[nH]c2ccccc2n1C1CCN(C(c2cc3ccccc3o2)c2nnnn2C2CCCCC2)CC1 (centres undefined),inactive: -20.4%
19,O=C(OC1CN2CCC1CC2)C1c2ccccc2Oc2ccccc21 (centres undefined),inactive: 0.532%
